Compounds with a hit are over-represented: about 0.53% of the library has one in this group of screens.
CCT modulator – modulators of cytosolic chaperonin (CCT/TRiC) activity. activity change, % (no concentration beside the values), hits read low. hit rate 0.3% among 360,000. purified chaperonin ATPase assay, HTRF ADP detection, 30 min. AID 651819; in the data active means activity change below about -30%; further: on the % scale 0 is the no-effect control and ±100 the full control effect
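We incubate TRiC, 40 or 20 nM final, with library compounds at 76 uM and 10 uM ATP for 30 min at 37 °C. ADP formed is detected with Transcreener HTRF reagents after 30 min at room temperature.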
Rango release inh – prevents RanGTP from dissociating the Rango-importin beta complex. Biochemical FRET Rango-importin beta, RanGTP-induced dissociation. AID 540253. hit rate 0.071% among 340,000. O95149+P62826. Potency, µM (highest dose often 46.1 µM), without a hit: at the top dose activity change, negative = inhibition; further: potency means the concentration at half of the fitted maximal effect; % of control where 0% means no effect; nearly all actives have a fitted effect of over 45% in size
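Rango FRET biosensor (snurportin-1 IBB flanked by N-terminal EYFP and C-terminal CFP10) at 0.1 uM, with 0.25 uM importin beta in PBS, 1mM DTT, 0.02% Tween-20, 0.1% BSA. 0.6 uM Ran, 2mM GTP and 0.2 uM RCC1 were then added for 45 min at room temperature. Inhibition read as loss of FRET rise.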
MmCpn inh – inhibitors of Methanococcus maripaludis chaperonin TRiC (MmCpn); purified Mm-Cpn ATPase, ADP Transcreener TR-FRET; Potency, µM (highest dose often 76.9 µM), for the others: top-dose activity, negative = inhibition, actives largely listed as inhibitors; hit rate 0.031% among 330,000; active means well fitted inhibition curve with a large enough effect; inconclusive means small, poorly fitted or top-dose-only effect; further: potency means the concentration at half of the fitted maximal effect; on the % scale 0 is the no-effect control and ±100 the full control effect; nearly all actives have a fitted effect of over 80% in size
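TR-FRET (320 nm excitation; 590 and 665 nm emission) reports ADP made from 10 uM ATP by 25 nM enzyme; compounds were preincubated 10 min, reaction run 30 min, both at 37°C.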
Giardia killer – Giardia lamblia killing; activity change, % at 7.66 µM, hits read low; Giardia lamblia trophozoite viability; hit rate 0.15% among 340,000; in the data active means activity change below about -80%; inconclusive means between about -30% and that limit;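 further: parasites exposed to compound for two days anaerobically before the ATP read; on the % scale 0 is the no-effect control and ±100 the full control effect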
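Luminescence from cellular ATP indicates surviving trophozoites (100 cells/well) following 48 hrs anaerobic compound treatment at 37 deg C; signal develops 15-30 min at room temperature.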
Rango-impB inh – Rango-importin beta binding inhibition. hit rate 0.031% among 340,000. Rango CFP/YFP FRET sensor + importin beta, 45 min. AID 540263. Potency, µM (doses to about 92.2 µM), inactives show at the top dose inhibition of complex formation. Q14974;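 further: potency means the concentration at half of the fitted maximal effect; 0% = DMSO wells and 100% = buffer wells lacking importin beta; nearly all actives have a fitted effect of over 15% in size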
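FRET biosensor Rango (snurportin 1 IBB between N-terminal EYFP and C-terminal Cerulean), 50 nM in PBS/1 mM DTT/0.02% Tween-20/0.1% BSA, preincubated 5 min RT with compound; 0.125 microM importin beta added, 45 min RT, CFP/YFP FRET ratio read.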
* hit, by the source's call; ? = inconclusive; · = not tested or not shown. Unless noted, the call rests on the fitted dose curve.

SMILES	CCT modulator	Rango release inh	MmCpn inh	Giardia killer	Rango-impB inh
N#Cc1cccc(C(=O)Nc2ccc(S(=O)(=O)Nc3nccs3)cc2)c1	-2	9.2µM*	-1%	-14	?
O=C(c1cccc2ccccc12)N1CCN(S(=O)(=O)c2ccccc2)CC1	·	·	·	3	·
NC(=O)C(=O)N/N=C/c1c2ccccc2cc2ccccc12	1	15µM*	-5%	-4	2%
CCC/C=C1/CCCOC(C(=O)NCC2CC2)(C(F)(F)F)C1 (configuration not stated)	·	·	·	-12	·
Brc1ccc(N=Nc2ccc3ccccc3n2)cc1	0	-11%	-2%	-81*	?
CCn1c(O)c(N=Nc2ccc3ccccc3n2)c2ccccc21	1	-13%	1%	34	?
Nc1ccccc1-c1n[nH]c(=S)s1	0	15µM*	?	-13	?
COc1ccc(/C(O)=C2\C(=O)C(=O)N(CCN(C)C)C2c2cc(OC)c(OC)c(OC)c2)c(C)c1 (configuration not stated)	-2	1%	1%	-1	0%
COc1ccc(C2/C(=C(\O)c3cc(C)ccc3C)C(=O)C(=O)N2CCN(C)C)cc1OC (configuration not stated)	-80*	7%	0%	-2	-4%
O=C(Nc1ncc([N+](=O)[O-])s1)C1CC(=O)N(c2ccc(F)cc2)C1 (configuration not stated)	0	-12%	0%	-86*	1%
CCCN1CNc2c(c(=O)[nH]c(=S)n2CCc2cc(C)ccc2C)C1	·	·	·	-21	·
O=S(=O)(Nc1cc(Br)cc2cccnc12)c1ccccc1	·	·	·	24	·
COC(=O)c1ccc(-c2ccc(OC)c(C3C4C=CCC(C)C4C(=O)N3Cc3ccccc3)c2)cc1 (configuration not stated)	·	·	·	-17	·
CCOC(=O)C1CCN(C(=O)COc2ccc(Cl)cc2)CC1	0	-6%	-2%	-4	0%
CCOC(=O)C1CCN(C(=O)COC(=O)COc2ccc(Cl)cc2)CC1	-30*	4%	4%	24	-2%
COc1ccc([N+](=O)[O-])cc1NC(=O)CCCOc1ccccc1	0	-9%	-2%	-6	0%
COc1ccc(OCCCC(=O)Nc2cc([N+](=O)[O-])ccc2C)cc1	-44*	1%	-1%	-5	0%
C=CCSC(=C(C#N)C#N)c1cc2c([nH]1)CCCC2	1	16µM*	-1%	-6	?
O=C(O)c1cc2c([nH]c1=O)CCCC2	1	1%	2%	5	-2%
COc1ccc(C2=NCCn3nc4cc(C(F)(F)F)ccc4c32)cc1	-1	?	0%	-19	-3%
COc1ccc(C2=NCCn3c2c2ccc(C(F)(F)F)cc2[n+]3[O-])cc1	-1	1%	0%	-99*	0%
Cc1ccc(C2=NCCn3c2c2ccc(C(F)(F)F)cc2[n+]3[O-])cc1	0	0%	0%	-84*	1%
COc1ccc(N2CCN(S(=O)(=O)c3ccc(OC)c(-c4noc(C)n4)c3)CC2)cc1	·	·	·	-23	·
O=C(CN1CCCC1)Nc1ccccc1Sc1ccc(Cl)cc1	-35*	-9%	-6%	16	5%
CCOc1cc(/C=C2\SC(=S)N(NS(=O)(=O)c3ccc(C)cc3)C2=O)ccc1O	0	17%	·	-6	23µM*
COc1cc(/C=C2\SC(=S)N(NS(=O)(=O)c3ccc(C)cc3)C2=O)ccc1O	0	?	-17%	5	41µM*
O=C(CSc1nc2ccccc2s1)c1cc2ccccc2o1	-63*	-16%	·	-11	?
CCO/C=C1/C(=O)N(c2ccc(OC)cc2)C(=O)c2ccccc21	-3	?	0%	-19	?
CCO/C=C1\C(=O)N(c2ccccc2)C(=O)c2ccccc21	-3	13µM*	0%	1	?
CCSc1nnc(NC(=O)c2cc3c(s2)CCCC3)s1	-4	2%	-1%	-17	3%

Reprinted at random: 2 compounds from above, in no set order.
SMILES	CCT modulator	Rango release inh	MmCpn inh	Giardia killer	Rango-impB inh
COc1cc(/C=C2\SC(=S)N(NS(=O)(=O)c3ccc(C)cc3)C2=O)ccc1O	0	?	-17%	5	41µM*
CCO/C=C1/C(=O)N(c2ccc(OC)cc2)C(=O)c2ccccc21	-3	?	0%	-19	?

Carrying on.
SMILES	CCT modulator	Rango release inh	MmCpn inh	Giardia killer	Rango-impB inh
O=C(Nc1nnc(SCc2ccccc2)s1)c1cc2c(s1)CCCC2	-61*	-8%	0%	-26	-1%
O=S1(=O)C2CC3C=CC2(O3)C(O)C(Cc2ccccc2)N1Cc1cccc(C(F)(F)F)c1 (configuration not stated)	·	·	·	-3	·
Oc1cccc(-c2nnc(-c3cccc(O)c3)nn2)c1	1	2%	·	-80*	1%
Oc1cccc(-c2nc3ccccc3s2)c1	0	-7%	-2%	-25	8%
CC(=O)Nc1cc2nn(-c3ccccc3)nc2cc1Cl	-1	3%	0%	5	-1%
CC(C)(C)C(=O)Nc1cc2nn(-c3ccccc3)nc2cc1Cl	1	5%	1%	-93*	-2%
Oc1ccc(Cl)cc1C1C=C(c2ccc3c(c2)OCO3)NC(c2ccc(Br)cc2)N1 (configuration not stated)	·	·	·	-7	·
CN1C(=O)/C(=C/c2ccc(O)c([N+](=O)[O-])c2)N(C)C1=S	0	-30%	-2%	-91*	?
Cc1ccc2nc3sc(C(=O)Nc4ccc(F)cc4)cc3cc2c1	·	·	-2%	·	·
Cc1cccc(-n2c(O)c(/C=N/NC(=O)c3ccccc3Cl)c3ccccc3c2=O)n1	-46*	?	-2%	13	?
Cc1cccc(-n2c(O)c(C=Nc3ccccc3O)c3ccccc3c2=O)n1	0	?	1%	-22	?
O=C(CNc1cccc([N+](=O)[O-])c1)N/N=C/c1ccc([N+](=O)[O-])o1	0	-17%	-2%	-107*	7%
O=C(CNc1cccc2ccccc12)N/N=C/c1ccc([N+](=O)[O-])o1	1	2%	1%	-96*	5%
CC(C)CN1CCC(=O)N(C(CSc2ccc(Br)cc2)Cc2ccccc2)CC1 (configuration not stated)	·	·	·	-21	·
O=C(Nc1nc2c(s1)CCCC2)c1cccc(S(=O)(=O)N2CCCc3ccccc32)c1	2	4%	?	33	-5%
CN1CCc2nc(NC(=O)c3cccc(S(=O)(=O)N4CCc5ccccc54)c3)sc2C1	-35*	?	-21%	9	?
Cc1ccc(S(=O)(=O)c2c(N)n(-c3ccccc3)c3nc4ccccc4nc23)cc1	-35*	15µM*	-3%	3	?
CCCCn1c(N)c(S(=O)(=O)c2ccc(C)cc2)c2nc3ccccc3nc21	-11	?	-15%	-10	?
COc1ccccc1-c1sc2ccccc2c1-c1ccc(OCCN2CCOCC2)cc1	0	-10%	40µM*	3	1%
O=C(CCc1ccccc1)NCCCN1CCOCC1	-31*	-9%	1%	-2	4%
O=C(CCCc1ccccc1)NCCCN1CCOCC1	-2	6%	3%	-15	-1%
O=C(Nc1ccc(Br)c(Br)c1)C1CCCO1 (configuration not stated)	2	-2%	·	43	-2%

Part of the list above, bar-delimited:
mol | CCT modulator | Rango release inh | MmCpn inh | Giardia killer | Rango-impB inh
CCCCn1c(N)c(S(=O)(=O)c2ccc(C)cc2)c2nc3ccccc3nc21 | -11 | ? | -15% | -10 | ?
COc1ccccc1-c1sc2ccccc2c1-c1ccc(OCCN2CCOCC2)cc1 | 0 | -10% | 40µM* | 3 | 1%
O=C(CCc1ccccc1)NCCCN1CCOCC1 | -31* | -9% | 1% | -2 | 4%
O=C(CCCc1ccccc1)NCCCN1CCOCC1 | -2 | 6% | 3% | -15 | -1%
O=C(Nc1ccc(Br)c(Br)c1)C1CCCO1 (configuration not stated) | 2 | -2% | · | 43 | -2%

Assay outcomes deposited in PubChem BioAssay by National Center for Advancing Translational Sciences (NCATS).
